From patent publication US8959984B2, “Proteome-wide quantification of small molecule binding to cellular target proteins” (priority 2007, dated 2015) come the findings set out here.

Chains of the proteins cited; added tags and fusions are not shown. Lines headed by an entry give the natural chain unless they say otherwise; changes in a name come on top.
UniProt P78356: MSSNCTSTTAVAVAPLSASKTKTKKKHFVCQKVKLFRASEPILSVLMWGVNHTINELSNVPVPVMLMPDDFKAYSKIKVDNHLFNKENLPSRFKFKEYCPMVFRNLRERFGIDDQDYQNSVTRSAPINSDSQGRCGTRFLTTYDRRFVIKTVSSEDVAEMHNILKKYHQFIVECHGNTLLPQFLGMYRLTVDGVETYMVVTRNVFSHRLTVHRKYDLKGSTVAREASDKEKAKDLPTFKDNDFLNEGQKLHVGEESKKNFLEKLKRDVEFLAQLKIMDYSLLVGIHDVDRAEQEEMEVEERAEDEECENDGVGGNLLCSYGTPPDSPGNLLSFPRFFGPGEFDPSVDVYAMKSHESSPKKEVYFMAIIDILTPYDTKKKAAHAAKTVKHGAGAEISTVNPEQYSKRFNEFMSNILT
UniProt Q15059, whole entry: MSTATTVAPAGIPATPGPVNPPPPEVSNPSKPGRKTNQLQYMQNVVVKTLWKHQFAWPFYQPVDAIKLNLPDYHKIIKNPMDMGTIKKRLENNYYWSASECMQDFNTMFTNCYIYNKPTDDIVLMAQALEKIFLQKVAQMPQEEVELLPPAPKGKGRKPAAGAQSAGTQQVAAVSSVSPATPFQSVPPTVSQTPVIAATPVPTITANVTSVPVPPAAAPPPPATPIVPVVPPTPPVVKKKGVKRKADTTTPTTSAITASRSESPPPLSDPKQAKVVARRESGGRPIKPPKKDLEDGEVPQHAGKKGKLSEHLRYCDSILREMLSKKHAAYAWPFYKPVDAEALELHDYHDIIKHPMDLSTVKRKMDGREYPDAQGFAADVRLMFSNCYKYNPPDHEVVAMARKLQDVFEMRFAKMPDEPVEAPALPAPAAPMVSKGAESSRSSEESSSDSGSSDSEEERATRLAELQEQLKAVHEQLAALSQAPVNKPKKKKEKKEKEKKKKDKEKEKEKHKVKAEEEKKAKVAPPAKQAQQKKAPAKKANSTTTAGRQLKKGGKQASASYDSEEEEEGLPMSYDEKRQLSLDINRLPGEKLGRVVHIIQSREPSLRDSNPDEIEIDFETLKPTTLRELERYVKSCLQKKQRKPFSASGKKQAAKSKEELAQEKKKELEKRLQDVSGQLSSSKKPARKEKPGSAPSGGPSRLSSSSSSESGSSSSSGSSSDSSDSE
UniProt P23458: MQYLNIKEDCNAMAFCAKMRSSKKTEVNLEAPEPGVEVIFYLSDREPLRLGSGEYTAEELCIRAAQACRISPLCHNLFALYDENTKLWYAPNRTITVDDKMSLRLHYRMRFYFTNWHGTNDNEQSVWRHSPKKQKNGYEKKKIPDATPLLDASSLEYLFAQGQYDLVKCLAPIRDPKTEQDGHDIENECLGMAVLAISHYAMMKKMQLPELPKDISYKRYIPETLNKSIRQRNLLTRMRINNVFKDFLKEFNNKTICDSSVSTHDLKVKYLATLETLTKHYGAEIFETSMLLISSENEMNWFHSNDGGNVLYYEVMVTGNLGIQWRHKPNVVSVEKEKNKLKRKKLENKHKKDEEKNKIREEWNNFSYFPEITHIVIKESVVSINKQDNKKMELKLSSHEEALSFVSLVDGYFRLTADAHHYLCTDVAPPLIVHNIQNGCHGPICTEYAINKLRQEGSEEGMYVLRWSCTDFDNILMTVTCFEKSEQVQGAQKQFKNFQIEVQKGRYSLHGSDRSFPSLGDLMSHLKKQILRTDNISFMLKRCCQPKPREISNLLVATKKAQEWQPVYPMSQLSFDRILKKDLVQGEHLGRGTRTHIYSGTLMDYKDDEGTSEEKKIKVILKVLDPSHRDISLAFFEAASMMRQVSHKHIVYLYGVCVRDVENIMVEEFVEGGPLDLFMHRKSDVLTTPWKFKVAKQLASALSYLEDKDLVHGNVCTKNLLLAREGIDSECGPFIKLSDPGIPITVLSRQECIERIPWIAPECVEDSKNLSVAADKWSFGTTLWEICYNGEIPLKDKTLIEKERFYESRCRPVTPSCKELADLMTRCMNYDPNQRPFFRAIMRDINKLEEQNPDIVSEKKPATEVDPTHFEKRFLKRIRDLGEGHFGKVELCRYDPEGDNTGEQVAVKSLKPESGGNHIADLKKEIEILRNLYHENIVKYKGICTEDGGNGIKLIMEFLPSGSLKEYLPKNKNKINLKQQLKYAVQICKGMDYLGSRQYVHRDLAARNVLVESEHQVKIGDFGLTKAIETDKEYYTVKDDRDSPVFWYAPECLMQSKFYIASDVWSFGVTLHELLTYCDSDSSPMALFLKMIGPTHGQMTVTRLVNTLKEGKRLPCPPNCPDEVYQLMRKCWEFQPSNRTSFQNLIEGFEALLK
UniProt Q13557, whole entry: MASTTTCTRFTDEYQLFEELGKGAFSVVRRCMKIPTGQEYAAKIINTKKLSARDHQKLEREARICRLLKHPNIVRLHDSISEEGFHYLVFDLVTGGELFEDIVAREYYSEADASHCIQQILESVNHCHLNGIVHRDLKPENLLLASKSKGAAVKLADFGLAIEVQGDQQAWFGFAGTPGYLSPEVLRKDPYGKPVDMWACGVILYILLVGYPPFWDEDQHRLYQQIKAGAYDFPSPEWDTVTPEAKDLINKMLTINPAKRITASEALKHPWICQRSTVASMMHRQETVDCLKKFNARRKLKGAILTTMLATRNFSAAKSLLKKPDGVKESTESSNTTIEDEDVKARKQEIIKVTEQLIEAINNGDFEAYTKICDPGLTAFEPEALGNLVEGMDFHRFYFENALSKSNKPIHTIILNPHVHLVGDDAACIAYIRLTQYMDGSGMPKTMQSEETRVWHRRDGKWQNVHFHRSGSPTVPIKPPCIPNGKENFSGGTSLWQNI
UniProt P07947, whole entry: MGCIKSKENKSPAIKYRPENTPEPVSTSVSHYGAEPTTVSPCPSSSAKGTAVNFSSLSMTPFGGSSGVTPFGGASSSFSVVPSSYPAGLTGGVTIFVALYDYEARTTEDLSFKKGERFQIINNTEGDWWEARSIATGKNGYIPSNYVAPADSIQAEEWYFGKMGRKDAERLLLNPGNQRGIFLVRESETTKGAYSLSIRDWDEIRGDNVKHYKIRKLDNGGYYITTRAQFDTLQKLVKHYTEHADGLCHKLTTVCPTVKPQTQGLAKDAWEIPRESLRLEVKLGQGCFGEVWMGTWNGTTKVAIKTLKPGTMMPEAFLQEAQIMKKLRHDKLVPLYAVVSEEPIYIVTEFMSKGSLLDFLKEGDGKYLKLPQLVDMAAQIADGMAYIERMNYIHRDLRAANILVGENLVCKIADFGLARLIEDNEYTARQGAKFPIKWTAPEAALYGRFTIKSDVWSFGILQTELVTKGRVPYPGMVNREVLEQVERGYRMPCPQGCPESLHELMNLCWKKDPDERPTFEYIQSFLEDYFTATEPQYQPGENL
UniProt Q04917: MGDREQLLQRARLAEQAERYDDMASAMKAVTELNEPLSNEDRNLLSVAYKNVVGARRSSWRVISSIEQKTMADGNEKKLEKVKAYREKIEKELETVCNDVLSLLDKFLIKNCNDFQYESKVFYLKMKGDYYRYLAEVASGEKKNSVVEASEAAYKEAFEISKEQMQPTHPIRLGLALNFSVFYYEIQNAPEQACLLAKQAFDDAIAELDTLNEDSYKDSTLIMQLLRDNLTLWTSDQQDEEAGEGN
UniProt Q99755: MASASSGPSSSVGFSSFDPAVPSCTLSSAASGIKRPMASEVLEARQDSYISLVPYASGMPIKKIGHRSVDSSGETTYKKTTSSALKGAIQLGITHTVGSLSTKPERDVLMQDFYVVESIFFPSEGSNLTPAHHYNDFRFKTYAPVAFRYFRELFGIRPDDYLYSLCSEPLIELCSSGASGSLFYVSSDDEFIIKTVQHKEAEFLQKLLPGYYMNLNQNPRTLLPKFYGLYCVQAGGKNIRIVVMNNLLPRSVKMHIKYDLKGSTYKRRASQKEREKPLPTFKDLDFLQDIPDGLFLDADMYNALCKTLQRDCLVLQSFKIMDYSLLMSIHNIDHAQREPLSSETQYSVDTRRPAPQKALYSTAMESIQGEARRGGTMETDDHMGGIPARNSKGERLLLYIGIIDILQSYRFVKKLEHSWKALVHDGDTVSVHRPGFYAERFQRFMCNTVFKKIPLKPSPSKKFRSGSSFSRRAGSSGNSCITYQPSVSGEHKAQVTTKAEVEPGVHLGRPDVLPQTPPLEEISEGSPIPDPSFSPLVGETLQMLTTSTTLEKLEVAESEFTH
UniProt Q13233: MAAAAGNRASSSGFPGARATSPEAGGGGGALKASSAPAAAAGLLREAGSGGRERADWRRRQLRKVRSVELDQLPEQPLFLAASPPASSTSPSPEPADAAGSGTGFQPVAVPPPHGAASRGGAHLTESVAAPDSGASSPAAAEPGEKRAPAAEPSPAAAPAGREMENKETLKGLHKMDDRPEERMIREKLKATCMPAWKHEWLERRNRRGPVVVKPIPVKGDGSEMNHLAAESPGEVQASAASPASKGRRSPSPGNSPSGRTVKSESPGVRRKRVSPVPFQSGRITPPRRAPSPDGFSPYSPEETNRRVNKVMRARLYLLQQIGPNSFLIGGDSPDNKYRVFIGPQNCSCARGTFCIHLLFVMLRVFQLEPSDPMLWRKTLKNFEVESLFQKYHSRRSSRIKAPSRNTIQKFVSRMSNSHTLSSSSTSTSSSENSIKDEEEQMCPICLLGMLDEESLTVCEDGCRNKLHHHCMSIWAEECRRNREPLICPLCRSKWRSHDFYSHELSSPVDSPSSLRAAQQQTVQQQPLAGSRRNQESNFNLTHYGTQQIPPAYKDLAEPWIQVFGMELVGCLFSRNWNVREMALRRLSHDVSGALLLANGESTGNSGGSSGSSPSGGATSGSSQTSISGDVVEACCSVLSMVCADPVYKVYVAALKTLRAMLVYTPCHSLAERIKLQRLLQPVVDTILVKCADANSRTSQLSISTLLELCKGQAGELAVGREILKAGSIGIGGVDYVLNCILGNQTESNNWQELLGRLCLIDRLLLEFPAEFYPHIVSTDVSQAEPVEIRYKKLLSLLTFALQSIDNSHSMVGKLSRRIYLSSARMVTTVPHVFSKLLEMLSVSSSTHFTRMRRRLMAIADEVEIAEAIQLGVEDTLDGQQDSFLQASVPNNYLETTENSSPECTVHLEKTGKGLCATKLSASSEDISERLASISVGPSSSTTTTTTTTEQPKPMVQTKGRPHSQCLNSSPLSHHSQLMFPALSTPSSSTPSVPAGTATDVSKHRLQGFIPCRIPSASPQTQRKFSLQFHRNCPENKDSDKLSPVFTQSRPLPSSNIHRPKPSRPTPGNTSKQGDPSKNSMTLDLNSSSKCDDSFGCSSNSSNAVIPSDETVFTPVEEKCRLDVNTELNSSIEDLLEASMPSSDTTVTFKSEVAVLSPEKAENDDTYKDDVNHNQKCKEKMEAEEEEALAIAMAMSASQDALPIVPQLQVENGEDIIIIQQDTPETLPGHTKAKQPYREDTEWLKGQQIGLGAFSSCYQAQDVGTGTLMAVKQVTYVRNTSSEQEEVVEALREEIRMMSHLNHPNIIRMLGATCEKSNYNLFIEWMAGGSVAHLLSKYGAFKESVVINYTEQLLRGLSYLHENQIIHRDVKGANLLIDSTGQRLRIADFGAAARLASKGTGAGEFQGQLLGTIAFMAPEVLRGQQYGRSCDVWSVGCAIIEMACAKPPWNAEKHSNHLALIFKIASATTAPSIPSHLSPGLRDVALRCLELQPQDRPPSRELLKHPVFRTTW
UniProt O75676: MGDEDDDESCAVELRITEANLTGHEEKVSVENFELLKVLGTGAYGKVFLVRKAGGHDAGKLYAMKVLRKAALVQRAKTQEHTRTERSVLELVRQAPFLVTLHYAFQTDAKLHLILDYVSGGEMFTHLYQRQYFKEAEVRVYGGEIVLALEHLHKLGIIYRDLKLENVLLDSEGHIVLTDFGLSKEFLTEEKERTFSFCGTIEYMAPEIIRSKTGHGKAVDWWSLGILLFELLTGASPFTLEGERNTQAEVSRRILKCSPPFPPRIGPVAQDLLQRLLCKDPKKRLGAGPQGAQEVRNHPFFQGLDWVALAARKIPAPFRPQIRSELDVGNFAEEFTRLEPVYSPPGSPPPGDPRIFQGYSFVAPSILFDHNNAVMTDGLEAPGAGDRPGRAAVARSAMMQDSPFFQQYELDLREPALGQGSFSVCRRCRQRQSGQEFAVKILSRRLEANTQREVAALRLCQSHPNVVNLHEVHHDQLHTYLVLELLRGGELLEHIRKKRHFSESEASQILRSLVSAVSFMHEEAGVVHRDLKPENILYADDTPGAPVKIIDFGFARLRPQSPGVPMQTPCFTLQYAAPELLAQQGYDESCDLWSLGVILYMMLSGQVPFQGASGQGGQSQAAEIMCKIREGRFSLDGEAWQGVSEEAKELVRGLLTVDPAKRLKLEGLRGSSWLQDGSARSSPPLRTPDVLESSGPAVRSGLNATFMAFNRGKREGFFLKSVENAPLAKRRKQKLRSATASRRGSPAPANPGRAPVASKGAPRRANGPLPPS

Experiment in all cases: Ki determination for immobilized VI16742: two consecutive incubations, control beads, ligand concentration and incubation time controls (Tables 7, 8)
What all share (assay type): binding

For test [1], the target named is cellular target proteins in HeLa cell lysate (Homo sapiens, UniProt P78356). As to conditions: Ki (VI16742), PIP4K2B IPI00216470.
Test [2] deals with cellular target proteins in HeLa cell lysate (Homo sapiens, UniProt Q15059). To be noted: Ki (VI16742), BRD3 IPI00014266.
Test [3] concerns the target cellular target proteins in HeLa cell lysate (Homo sapiens, UniProt P23458). As to conditions: Ki (VI16742), JAK1 IPI00784013.
Test [4] addresses cellular target proteins in HeLa cell lysate (Homo sapiens, UniProt Q13557). As to conditions: Ki (VI16742), CaMK2d (CAMK2D) IPI00828081.
In test [5] the target is cellular target proteins in HeLa cell lysate (Homo sapiens, UniProt P07947). To be noted: Ki (VI16742), YES (YES1) IPI00013981.
Test [6] deals with T1, cellular target proteins in HeLa cell lysate (Homo sapiens, UniProt P63104).
T1 sequence (P63104 1-245): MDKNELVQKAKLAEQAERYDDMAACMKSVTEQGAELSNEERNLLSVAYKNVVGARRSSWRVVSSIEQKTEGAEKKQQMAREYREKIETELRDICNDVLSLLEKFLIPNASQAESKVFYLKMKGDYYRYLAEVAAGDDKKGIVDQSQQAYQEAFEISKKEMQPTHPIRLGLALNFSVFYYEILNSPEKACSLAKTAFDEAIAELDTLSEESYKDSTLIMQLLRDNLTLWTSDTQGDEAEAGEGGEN
To be noted: Ki (VI16742), YWHAZ IPI00021263.

Test [7] has as its target cellular target proteins in HeLa cell lysate (Homo sapiens, UniProt Q04917). To be noted: Ki (VI16742), YWHAH IPI00216319.
The target of test [8] is cellular target proteins in HeLa cell lysate (Homo sapiens, UniProt Q99755). To be noted: Ki (VI16742), PIP5K1A IPI00022150.
The target in test [9] is cellular target proteins in HeLa cell lysate (Homo sapiens, UniProt Q13233). As to conditions: Ki (VI16742), MAP3K1 IPI00855985.
For test [10], the target named is cellular target proteins in HeLa cell lysate (Homo sapiens, UniProt P31946). To be noted: Ki (VI16742), YWHAB IPI00216318.
In test [11] the target is cellular target proteins in HeLa cell lysate (Homo sapiens, UniProt O75676). To be noted: Ki (VI16742), MSK2 (RPS6KA4) IPI00022536.
Test [12] concerns the target T2, cellular target proteins in HeLa cell lysate (Homo sapiens, UniProt O00141).
T2 sequence (O00141 1-431): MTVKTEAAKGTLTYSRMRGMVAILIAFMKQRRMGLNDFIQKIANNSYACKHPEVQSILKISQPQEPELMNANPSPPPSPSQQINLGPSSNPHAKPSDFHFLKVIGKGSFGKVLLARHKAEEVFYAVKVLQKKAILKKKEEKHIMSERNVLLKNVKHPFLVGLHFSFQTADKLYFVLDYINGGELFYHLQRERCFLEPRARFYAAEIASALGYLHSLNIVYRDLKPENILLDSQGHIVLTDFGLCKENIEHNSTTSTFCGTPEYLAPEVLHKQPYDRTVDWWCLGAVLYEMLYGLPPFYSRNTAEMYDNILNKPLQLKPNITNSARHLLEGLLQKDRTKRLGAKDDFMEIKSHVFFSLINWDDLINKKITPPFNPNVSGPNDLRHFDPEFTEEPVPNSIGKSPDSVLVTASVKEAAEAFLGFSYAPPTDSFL
As to conditions: Ki (VI16742), SGK IPI00479349.

Each structure is given as a SMILES string.

For the compound `CC(C)n1c(=O)ccc2cnc(Nc3ccc(OCCN)cc3)nc21` [V16742], the Ki (in general, a dissociation constant, usually derived from enzyme kinetics or from competition with a known ligand) came to 39.3 µM in [1]; 29.4 µM in test [2]; 5.35 µM in [3]; 1.9 µM in test [4]; 34.2 µM in [5]; 36.3 µM in test [6]. Moreover, the Ki was 28.9 µM in [7]; 55.8 µM in [8]; 22 µM in test [9]; 31.3 µM in test [10]; 14 µM in [11]; 23.7 µM in test [12].
